{
  "sequences": {"note": "The chains behind the UniProt entries cited, without tags or fusion partners. Where a name states a change or a piece, a line headed by the entry shows the natural chain unless it says otherwise.", "UniProt Q9NR56": "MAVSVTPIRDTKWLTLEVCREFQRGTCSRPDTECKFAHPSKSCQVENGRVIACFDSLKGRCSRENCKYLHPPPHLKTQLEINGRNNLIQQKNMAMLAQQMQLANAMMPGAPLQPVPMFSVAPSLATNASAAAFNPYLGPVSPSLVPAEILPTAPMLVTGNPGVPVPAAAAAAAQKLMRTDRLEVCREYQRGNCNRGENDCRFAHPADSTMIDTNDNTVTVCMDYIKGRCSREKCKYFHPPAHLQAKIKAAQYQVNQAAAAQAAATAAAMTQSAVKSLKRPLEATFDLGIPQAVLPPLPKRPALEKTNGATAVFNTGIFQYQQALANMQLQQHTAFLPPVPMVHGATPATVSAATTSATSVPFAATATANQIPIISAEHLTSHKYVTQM"},
  "source": "PubChem BioAssay AID2675",
  "about": "(National Center for Advancing Translational Sciences (NCATS), 2010)",
  "note": "The entries are a selection whose mix differs from that of the whole data set. Records with an inconclusive call do not appear. The source made the active and inactive calls. Calls follow the shape of the dose curve; as a rule, active = well fitted inhibition curve with a large enough effect in the signal ratio, with a control signal flat (not every such curve was filed as active); inconclusive = small, poorly fitted or top-dose-only effect, or effect the other way, or a change in a side signal; inactive = no such curve, though single readings can be large or run the other way; the % refers to the signal ratio. % is scaled to controls: 0 for no effect and ±100 for the full control effect.",
  "data": [
    {"target": "Muscleblind-like protein 1 (Homo sapiens) (UniProt Q9NR56)", "assay": "qHTS Assay for Inhibitors of MBNL1-poly(CUG) RNA binding", "conditions": "TR-FRET MBNL1-His/biotin-(CUG)12 binding, 665/545 ratio; at 57.5 µM (top of the series) unless noted", "values": [
      {"smiles": "CC(=O)NC(SC(=S)N(C)C)C(Cl)(Cl)Cl", "note": "(stereo unspecified)", "activity change, negative = inhibition": "inactive: -6.83% [at 11.5 µM]"},
      {"smiles": "O=[As](O)(c1ccccc1)c1ccc(O)cc1", "activity change, negative = inhibition": "inactive: 0.703%"},
      {"smiles": "C(Cc1nn[nH]n1)Cc1nn[nH]n1", "activity change, negative = inhibition": "inactive: -27%"},
      {"smiles": "O=C(OC1CN2CCC1CC2)c1cccc(Cl)c1", "note": "(stereo unspecified)", "activity change, negative = inhibition": "inactive: -2.33%"},
      {"smiles": "O=P(Nc1ccccn1)(c1ccc(Br)cc1)c1ccc(Br)cc1", "activity change, negative = inhibition": "inactive: -8.2%"},
      {"smiles": "CN(C)C1(CNC(=O)c2ccc(Cl)c(S(N)(=O)=O)c2)CCCCC1", "activity change, negative = inhibition": "inactive: -4.97%"},
      {"smiles": "C[C@H]1OP(=O)(Oc2ccccc2)[C@H](O)[C@H](O)[C@H]1N=[N+]=[N-]", "note": "(stereo partly specified)", "activity change, negative = inhibition": "inactive: 0.393%"},
      {"smiles": "O=P(Nc1nccs1)(c1ccccc1)c1ccccc1", "activity change, negative = inhibition": "inactive: -1.51%"},
      {"smiles": "c1nnnn1CCn1cnnn1", "activity change, negative = inhibition": "inactive: -3.25%"},
      {"smiles": "CC(=O)c1ccc(N2CC2c2ccncc2)cc1", "note": "(stereo unspecified)", "activity change, negative = inhibition": "inactive: 8.27%"},
      {"smiles": "C[C@H]1OP(=O)(Oc2ccccc2)C[C@@H]2O[C@@H]21", "note": "(stereo partly specified)", "activity change, negative = inhibition": "inactive: -3.28%"},
      {"smiles": "C[C@@H]1C=CCP(=O)(Oc2ccccc2)O1", "note": "(stereo partly specified)", "activity change, negative = inhibition": "inactive: 2.46%"},
      {"smiles": "CC(=O)Nc1ccc([As](=O)(O)O)c(O)c1", "activity change, negative = inhibition": "inactive: -28.8%"},
      {"smiles": "O=P1(Nc2nc3ccc(Cl)cc3s2)COc2ccccc2O1", "note": "(stereo unspecified)", "activity change, negative = inhibition": "inactive: -3.49%"},
      {"smiles": "CCOc1ccc(C2=NCC(CBr)S2)cc1", "note": "(stereo unspecified)", "activity change, negative = inhibition": "inactive: -0.376%"},
      {"smiles": "CC(C)(C)C(=O)NC(Sc1ccccc1)C(Cl)(Cl)Cl", "note": "(stereo unspecified)", "activity change, negative = inhibition": "inactive: 9.05%"},
      {"smiles": "COC(=O)c1cc2c(s1)N=C(c1ccccc1)N(C)P2(=O)N1CCOCC1", "note": "(stereo unspecified)", "activity change, negative = inhibition": "inactive: 5.21%"},
      {"smiles": "CC(=O)NC(SC(=S)N(CC(C)C)CC(C)C)C(Cl)(Cl)Cl", "note": "(stereo unspecified)", "activity change, negative = inhibition": "inactive: 6.45%"},
      {"smiles": "Cc1ccc(OP(=O)(Nc2ccccn2)Oc2ccc(C)cc2)cc1", "activity change, negative = inhibition": "inactive: -5.78%"},
      {"smiles": "O=C(OC1CN2CCC1CC2)c1ccccc1", "note": "(stereo unspecified)", "activity change, negative = inhibition": "inactive: -10.9%"},
      {"smiles": "CCC(=O)N1C2C3N(C(=O)CC)C1C1N(C(=O)CC)C(C(N1C(=O)CC)N3C(=O)CC)N2C(=O)CC", "activity change, negative = inhibition": "inactive: -7.41%"},
      {"smiles": "Cc1ccccc1OP(=O)(Nc1ccccn1)Oc1ccccc1C", "activity change, negative = inhibition": "inactive: -5.07%"},
      {"smiles": "CN(C)C(=O)Oc1noc2ccccc12", "activity change, negative = inhibition": "inactive: -0.886%"},
      {"smiles": "CCNC(=S)/N=C(\\N)N[N+](=O)[O-]", "activity change, negative = inhibition": "inactive: -4.25%"},
      {"smiles": "O=C(NC1CCS(=O)(=O)C1)NP(=S)(Oc1ccccc1)Oc1ccccc1", "note": "(stereo unspecified)", "activity change, negative = inhibition": "inactive: -3.43%"},
      {"smiles": "c1ccc(-c2nn[nH]n2)c(-c2nn[nH]n2)c1", "activity change, negative = inhibition": "inactive: 8.65%"},
      {"smiles": "Cc1ccc(NP(=O)(Oc2cccc(C)c2)Oc2cccc(C)c2)nc1", "activity change, negative = inhibition": "inactive: 3.13%"},
      {"smiles": "CCOC(=O)NC(Sc1ccccc1)C(Cl)(Cl)Cl", "note": "(stereo unspecified)", "activity change, negative = inhibition": "inactive: -4.98%"},
      {"smiles": "CCN(N=Nc1nonc1N)c1nonc1N", "activity change, negative = inhibition": "inactive: 2.58%"},
      {"smiles": "CC(=O)Nc1ccc([As](=O)(O)O)cc1", "activity change, negative = inhibition": "inactive: -7.55%"},
      {"smiles": "O=P(Nc1nc2ccc(Cl)cc2s1)(c1ccccc1)c1ccccc1", "activity change, negative = inhibition": "inactive: -0.36%"},
      {"smiles": "Cc1cc(SC(NC(=O)c2ccc(F)cc2)C(Cl)(Cl)Cl)ncn1", "note": "(stereo unspecified)", "activity change, negative = inhibition": "inactive: 0.445%"},
      {"smiles": "CCOP(=O)(Nc1ccccc1)OCC", "activity change, negative = inhibition": "inactive: -9.64%"},
      {"smiles": "Cc1ccc(NP(=O)(Oc2ccccc2F)Oc2ccccc2F)nc1", "activity change, negative = inhibition": "inactive: 2.64%"},
      {"smiles": "CC(C)CC(=O)NC(Sc1ccc(Cl)cc1)C(Cl)(Cl)Cl", "note": "(stereo unspecified)", "activity change, negative = inhibition": "inactive: 14.6%"},
      {"smiles": "Oc1ccccc1CNc1ccccn1", "activity change, negative = inhibition": "inactive: -2.02%"},
      {"smiles": "O=C(NC(Sc1ccncn1)C(Cl)(Cl)Cl)c1ccccc1", "note": "(stereo unspecified)", "activity change, negative = inhibition": "inactive: 3.39%"},
      {"smiles": "Cc1c2non([O-])c-2c(C)[n+](=O)[n+]1[O-]", "activity change, negative = inhibition": "inactive: 0.988%"},
      {"smiles": "Cc1ccc(N/C(=N/P(=O)(N2CCOCC2)N2CCOCC2)N2CCOCC2)cc1", "activity change, negative = inhibition": "inactive: -27.7%"},
      {"smiles": "COc1ccccc1OP(=O)(Nc1ccc(C)cn1)Oc1ccccc1OC", "activity change, negative = inhibition": "inactive: -5.22%"},
      {"smiles": "Cc1ccc(OP(=O)(Nc2nccs2)Oc2ccc(C)cc2)cc1", "activity change, negative = inhibition": "inactive: -0.581%"},
      {"smiles": "CN1CCCC(OC(=O)C(c2ccccc2)c2ccccc2)C1", "note": "(stereo unspecified)", "activity change, negative = inhibition": "inactive: -27%"},
      {"smiles": "Clc1ccc(Cl)c(NC2=NCC(CBr)S2)c1", "note": "(stereo unspecified)", "activity change, negative = inhibition": "inactive: -5.42%"},
      {"smiles": "Nc1ccc([As](=O)(O)c2ccc(N)cc2)cc1", "activity change, negative = inhibition": "inactive: -11.4%"},
      {"smiles": "CC(C)=N/N=C(\\N)N[N+](=O)[O-]", "activity change, negative = inhibition": "inactive: -8.1%"},
      {"smiles": "CN(C)C(=O)OCCc1n(C)cc[n+]1C", "activity change, negative = inhibition": "inactive: -3.37%"},
      {"smiles": "CC1CCN(C(=O)Oc2c(Cl)cc(Cl)c3cccnc23)CC1", "activity change, negative = inhibition": "inactive: 11.9%"},
      {"smiles": "CC(=O)N1C2C3N(C(C)=O)C1C1N(C(C)=O)C(C(N1C(C)=O)N3C(C)=O)N2C(C)=O", "activity change, negative = inhibition": "inactive: -6.19%"},
      {"smiles": "CC(C)(C)C(=O)NC(Sc1ccncn1)C(Cl)(Cl)Cl", "note": "(stereo unspecified)", "activity change, negative = inhibition": "inactive: -9.79%"},
      {"smiles": "O=C(O)CNc1ccc([As](=O)(O)O)cc1", "activity change, negative = inhibition": "inactive: -3.56%"},
      {"smiles": "O=C(Nc1cc([As](=O)(O)O)ccc1O)c1ccccc1", "activity change, negative = inhibition": "inactive: -9.56%"}
    ]}
  ]
}
